The assay deals with T1, IL-23R (Homo sapiens, UniProt Q5VWK5).
T1 construct: host or cells: HEK293
T1 sequence (Q5VWK5 24-629): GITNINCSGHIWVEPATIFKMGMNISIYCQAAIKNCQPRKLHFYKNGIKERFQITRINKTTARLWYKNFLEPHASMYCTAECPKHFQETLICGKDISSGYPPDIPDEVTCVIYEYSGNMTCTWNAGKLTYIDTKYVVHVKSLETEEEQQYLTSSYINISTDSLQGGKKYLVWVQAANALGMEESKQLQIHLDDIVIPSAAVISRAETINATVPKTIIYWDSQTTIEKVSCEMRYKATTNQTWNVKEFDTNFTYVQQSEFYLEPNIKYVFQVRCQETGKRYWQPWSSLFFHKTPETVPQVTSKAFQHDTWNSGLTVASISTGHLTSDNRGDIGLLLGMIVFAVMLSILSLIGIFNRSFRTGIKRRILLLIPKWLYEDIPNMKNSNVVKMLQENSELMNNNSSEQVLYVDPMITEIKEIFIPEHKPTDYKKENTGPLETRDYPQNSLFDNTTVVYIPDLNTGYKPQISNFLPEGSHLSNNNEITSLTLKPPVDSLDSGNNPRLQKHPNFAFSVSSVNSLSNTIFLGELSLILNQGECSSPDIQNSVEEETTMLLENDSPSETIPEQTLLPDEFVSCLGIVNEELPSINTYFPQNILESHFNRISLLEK
Description: IL23R Reporter Assay. The class given is cell-based. The following applies: HEK293 cells containing IL-23R, IL-12RP1 and STAT-inducible firefly luciferase reporter; 10 ng/mL IL-23 (EC90); 5 h at 37° C.; read-out: IL23R Reporter Assay. In general terms: A reporter such as luciferase makes a cellular process visible.
Turning to `CC(=O)N(C)CCCC[C@@H]1NC(=O)[C@H](Cc2c[nH]c3c(C)cccc23)NC(=O)[C@H]([C@@H](C)O)NC(=O)[C@H](CC(=O)N(C)C)NC(=O)[C@@H](NC(=O)CCOCCOCC[N+](C)(C)C)C(C)(C)SSC(C)(C)[C@@H](C(=O)N[C@@H](Cc2ccc(-n3cc(CCC[N+](C)(C)C)nn3)cc2)C(=O)N[C@@H](Cc2ccc3ccccc3c2)C(=O)NC2(C(=O)N[C@@H](CCCCN(C)C(C)=O)C(=O)N[C@@H](CC(N)=O)C(=O)N[C@@H](Cc3cccnc3)C(=O)N(C)CC(=O)N(C)C)CCOCC2)NC1=O` [compound 334, cPEG3aCO-Pen(3)-N(N(Me)2)-T-7MeW-K(NMeAc)-Pen(3)-F(4TzlTMA3)-2Nal-THP-K(NMeAc)-N-3Pya-Sar-CON(Me)2], the IC50 was 1.1 nM.

Turning to `CC(=O)N(C)CCCC[C@@H]1NC(=O)[C@H](Cc2c[nH]c3c(C)cccc23)NC(=O)[C@H]([C@@H](C)O)NC(=O)[C@H](CC(=O)N(C)C)NC(=O)[C@@H](NC(=O)CCOCCOCC[N+](C)(C)C)C(C)(C)SSC(C)(C)[C@@H](C(=O)N[C@@H](Cc2ccc(OCCOCCOCCNC(=N)N)cc2)C(=O)N[C@@H](Cc2ccc3ccccc3c2)C(=O)NC2(C(=O)N[C@@H](CCCCN(C)C(C)=O)C(=O)N[C@@H](CC(N)=O)C(=O)N[C@@H](Cc3cccnc3)C(=O)N(C)CC(=O)N(C)C)CCOCC2)NC1=O` [compound 405, cPEG3aCO-Pen(3)-N(N(Me)2)-T-7MeW-K(NMeAc)-Pen(3)-GPEG3F-2Nal-THP-K(NMeAc)-N-3Pya-Sar-CON(Me)2], the IC50 was determined as 1.9 nM. For the compound `CC(=O)N(C)CCCC[C@@H]1NC(=O)[C@H](Cc2c[nH]c3c(C)cccc23)NC(=O)[C@H]([C@@H](C)O)NC(=O)[C@H](CC(=O)N(C)C)NC(=O)[C@@H](NC(=O)CCOCCOCC[N+](C)(C)C)C(C)(C)SSC(C)(C)[C@@H](C(=O)N[C@@H](Cc2ccc(OCCCCC[N+](C)(C)C)cc2)C(=O)N[C@@H](Cc2ccc3ccccc3c2)C(=O)NC2(C(=O)N[C@@H](C)C(=O)N[C@@H](CC(N)=O)C(=O)N[C@@H](Cc3cccnc3)C(=O)N(C)CC(=O)N(C)C)CCOCC2)NC1=O` [compound 316, cPEG3aCO-Pen(3)-N(N(Me)2)-T-7MeW-K(NMeAc)-Pen(3)-TMAPF-2Nal-THP-A-N-3Pya-Sar-CON(Me)2], the IC50 stood at 1.3 nM. The figure for `CC(=O)NCCCC[C@@H]1NC(=O)[C@H](Cc2c[nH]c3c(C)cccc23)NC(=O)[C@H]([C@@H](C)O)NC(=O)[C@H](CC(N)=O)NC(=O)[C@@H](NC(=O)COCCOCCNC(=O)COCCOCCNC(=O)COc2ccc(-c3ccc(F)cc3F)cc2C(=O)O)C(C)(C)SSC(C)(C)[C@@H](C(=O)N[C@@H](Cc2ccc(OCCCCC[N+](C)(C)C)cc2)C(=O)N[C@@H](Cc2ccc3ccccc3c2)C(=O)NC2(C(=O)N[C@@H](CCCCN(C)C(C)=O)C(=O)N[C@@H](CC(N)=O)C(=O)N[C@@H](Cc3cccnc3)C(=O)N(C)CC(N)=O)CCOCC2)NC1=O` [compound 490, DFNPEG2PEG2CO-Pen(3)-N-T-7MeW-K(Ac)-Pen(3)-TMAPF-2Nal-THP-K(Ac)-N-3Pya-Sar-CONH2] is 3.3 nM; for `CC(=O)NCCCC[C@@H]1NC(=O)[C@H](Cc2c[nH]c3c(C)cccc23)NC(=O)[C@H]([C@@H](C)O)NC(=O)[C@H](CC(N)=O)NC(=O)[C@@H](NC(C)=O)C(C)(C)SSC(C)(C)[C@@H](C(=O)N[C@@H](Cc2ccc(N=[N+]=[N-])cc2)C(=O)N[C@@H](Cc2ccc3ccccc3c2)C(=O)NC2(C(=O)N[C@@H](CCC(=O)O)C(=O)N[C@@H](CC(N)=O)C(=O)N[C@@H](Cc3cccnc3)C(=O)N(C)CC(N)=O)CCOCC2)NC1=O` [compound 435] it is 2.2 nM.
